For data set [1], the target named is T1, Adenosine receptor A1 (Rattus norvegicus, UniProt P25099). Nature of the data set: Binding affinity to rat recombinant adenosine A1 receptor.
Data set [2] concerns the target T1, Adenosine receptor A1.
The species named for the next data set is Homo sapiens. Nature of the data set: Selectivity ratio of Ki for human recombinant adenosine A1 receptor to Ki for human recombinant adenosine receptor A2a.

The chains behind the UniProt entries cited, without tags or fusion partners.
UniProt P25099, whole entry: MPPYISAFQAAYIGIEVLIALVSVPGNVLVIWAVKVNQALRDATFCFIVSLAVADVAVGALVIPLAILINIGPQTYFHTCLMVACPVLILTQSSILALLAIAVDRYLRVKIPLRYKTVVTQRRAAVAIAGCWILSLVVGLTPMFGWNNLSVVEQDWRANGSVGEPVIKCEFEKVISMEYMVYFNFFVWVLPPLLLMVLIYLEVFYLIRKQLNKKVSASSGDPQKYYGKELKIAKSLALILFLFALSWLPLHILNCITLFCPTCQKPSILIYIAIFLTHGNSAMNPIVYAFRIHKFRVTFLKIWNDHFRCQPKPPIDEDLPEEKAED

Each structure is given as a SMILES string. pKi: −log10 of the molar value.

In general, pKi refers to −log10 of the Ki, conventionally taken in molar units. On to `Nc1nc(Nc2ccccc2)nc2c1ncn2[C@@H]1O[C@H](CO)[C@@H](O)[C@H]1O`, for which the pKi at Adenosine receptor A1 [1] is 6.40.
On Adenosine receptor A1 [2], `Nc1nc2ccc(Cl)cc2c2nc(-c3ccco3)nn12` [CGS-15943] gave a pKi of 8.46.
Turning to `Cc1cc(Cn2nnc3c(-c4ccco4)nc(N)nc32)ccc1N` [VIPADENANT], in the data set filed under Homo sapiens, the Ratio Ki amounted to 52.
As usually defined, the AUC is the area under the concentration-time curve, a measure of exposure. A low value points to less exposure. In the case of `Cc1cc(-c2nnc(N)nc2-c2ccccc2)cc(C(F)(F)F)n1`, in the data set “in vivo”, the exposure (AUC) is 846 ng·h/mL.

For the origin of these results see ChEMBL document CHEMBL3259781 (J Med Chem, 2014).
